Yeast mating assay B: variants of the scFv Ab-14

Data: MIT Lincoln Laboratory AlphaSeq set, Li et al. 2023, doi:10.1038/s41467-023-39022-2, as distributed in FLAb.

All variants were tested on one target, the spike HR2 peptide PDVDLGDISGINAS (SARS-CoV-2).

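The parent was found by panning a naive human phage display library on the peptide. These sequences belong to a second round, designed from the earlier measurements on random variants of the parent. Group labels follow the data file (Ctrl: baseline library sampled from a position-specific scoring matrix, with some repeated check sequences; En: ensemble of fine-tuned language models; GP: Gaussian process model; HC: hill climbing; Gen: genetic algorithm; Gibbs: Gibbs sampling; a sequence that several methods proposed may carry one label only). The scFvs were displayed on barcoded MATa yeast, the peptide on MATalpha yeast. Pairs that bind mate more often; barcode pairs of the diploids are counted by sequencing. The ratio of observed to expected reads was calibrated, replicate by replicate, on BCL2-family standards whose Kd was known from biolayer interferometry. The assay was run in six technical replicates.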

Each scFv is VH, a (GGGGS)3 linker, VL, as in the parent Ab-14, and differs from it in the CDRs of the light chain only.
VH: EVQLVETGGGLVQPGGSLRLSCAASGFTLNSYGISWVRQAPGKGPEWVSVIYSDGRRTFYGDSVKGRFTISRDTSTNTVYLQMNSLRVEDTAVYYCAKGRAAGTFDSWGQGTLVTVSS
VL: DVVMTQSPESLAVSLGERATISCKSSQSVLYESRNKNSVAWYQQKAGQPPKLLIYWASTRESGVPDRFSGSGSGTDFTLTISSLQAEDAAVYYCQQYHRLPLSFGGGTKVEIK

The parent's light chain CDRs are KSSQSVLYESRNKNSVA, WASTRES, QQYHRLPLS; each variant's own CDRs replace them letter for letter. Numbers give log10(Kd / nM), so 0 is 1 nM and 3 is 1 µM. Smaller is tighter. Averages over replicates are reported, and they cover detected replicates only. A pair that was not seen in any replicate is written "no signal"; this usually means weak binding, but a binder can also be missed. The authors averaged sequences with at least three values out of six and counted those with two or fewer as poor binders.

"mean, log10 nM",seen in,CDR-L1,CDR-L2,CDR-L3,group
1.38,1 of 6,KCSQSVLYESTNANSVA,WASTRES,QQYHVLPLS,Ctrl
-0.27,6 of 6,HSTGSLRMDSRNKNHVA,DTTVRES,QQYMRLPLV,En_Gibbs
-0.21,6 of 6,KMSQSVKFESRNKNSVA,DASTRES,QQYHRLPLS,GP_HC
1.39,4 of 6,HFDDLMVEWDANQSQVA,DHNEAQH,QQYARLPLS,En_Gibbs
0.55,6 of 6,MFSQSVMAGSFYRNSVA,QTSTRES,QQYDRLPLS,En_HC
1.18,6 of 6,KLRQVTGYESYTKNSVA,QTSTRAS,QDYHRLPLS,En_HC
0.48,6 of 6,KILGVTNGISRNKNSVA,EQSTRED,QQYNRLPLS,En_HC
2.49,4 of 6,KSSQSQLYESRNDNSVA,TASTRNS,QQYHRLPLS,Ctrl
-0.55,6 of 6,KAEGSWLYESRNKNSVA,NASERES,QQYHRLPLS,GP_Gibbs
0.83,6 of 6,SLMQVGGYESNNHDSIA,DLRTRES,QQYHRLPLS,En_HC
0.46,6 of 6,KSSQHVLEESRNKNSVA,QASTRES,QQYHRLPLS,Ctrl
no signal,0 of 6,KSSQSVLYESRNKNSVA,WAITREY,QQYHRLPLS,Ctrl
0.41,6 of 6,KCAQSQDYESRNKNWVA,NASQRES,QQYHRLPLS,GP_Gibbs
-0.26,6 of 6,KLPQSVLYESRNKNSVA,GASTREQ,QQYHRLPLS,GP_Gen
0.70,6 of 6,KMSPSVLYQDRNSNAVA,QASQRES,QQYHRLPLS,GP_Gibbs
2.98,2 of 6,KLSMSMLMESRHVNSVA,ENSTRES,QHYHRLPLS,En_HC
1.61,5 of 6,KFGYSVLTGSYVRNSVA,QQSTREN,QQYDRLPLS,En_HC
0.06,6 of 6,KLTMITGLEKVSTNNVA,EMETRER,QQYNRLPLA,En_Gen
1.56,1 of 6,KSSQSVLYESMNKNSVA,WASTRES,QQYHRLLLC,Ctrl
0.44,6 of 6,KLYVSTMLESHNKNSIA,DLTTRGN,QQYHRLPLS,En_HC
-0.05,6 of 6,KVSQMVLEESGNKNSVA,NASTRYS,QQYVRLPLS,Ctrl
-0.12,6 of 6,KSSQEWLYESRNKNSVA,QASTREQ,QQYHRLPLS,GP_HC
no signal,0 of 6,KSSQSVLQESRNKNSVA,WASTGES,QYYHRLPLS,Ctrl
-0.21,6 of 6,KVSMSQLYEWRNFNSVA,NASTREE,QQYHRLPLS,GP_Gibbs
3.02,3 of 6,KSSQSVLMESRNKNSVA,WAETRES,QQYHRLPLE,Ctrl
-0.45,6 of 6,KLSQSGLYESRNKNSVA,NASTRMS,QQYHRLPLS,GP_Gen
0.19,6 of 6,KSSQSMLYESRNKNSVA,HASTRED,QQYHRLPLS,GP_HC
2.35,1 of 6,QLEWDQLWGANYDYSVA,AQDVILP,QQYDRLPLI,En_Gibbs
-0.16,6 of 6,KVSQSVLYESRNKNSVA,AAMTRES,QQYHRLPLS,Ctrl
1.04,6 of 6,KSSQSSTYESRNKNSVA,DASTRES,QQYHRLPLS,Ctrl
0.98,6 of 6,RIDDYEAMLGKNKESIA,EAAVTLT,QQYARLPLS,En_Gibbs
2.28,1 of 6,KSSQSYLYESRNTNSVA,GVSTRES,QQYHRAPLS,Ctrl
-0.18,6 of 6,KFSQSVLYESRTKNSVA,NAVTRET,QQYHRLPLS,GP_HC
1.59,6 of 6,KSSMSVTYESRNKNSVA,WASTRES,QQYHRLPLS,Ctrl
0.61,6 of 6,KMSQSVLYTSRNKNSVA,HASTRFS,QQYERLPLS,Ctrl
no signal,0 of 6,KSSQSVLYYSRNKNSVA,WASHRES,QQYHRLPLS,Ctrl
0.80,6 of 6,QLQLQPQTGLNAQHSIA,DVSAKDM,QQYARLPLH,En_Gibbs
0.10,6 of 6,KLSQNVLYDSRNKNSVA,SASTRES,QSYHHLPLS,Ctrl
no signal,0 of 6,KSSQSVLYETRNKQSVA,YASTRES,QQYHCLPPS,Ctrl
no signal,0 of 6,QIAMEMYHGLNDNQNIA,DAMTYIK,QQYSRLPLF,En_Gibbs
0.65,6 of 6,QSSYSILYEKRNKNSVA,NASTRES,QQYQRLPLS,Ctrl
1.40,5 of 6,TISQITSSFSMNINNVA,EVSTREK,QQYDRLPLS,En_Gen
1.24,6 of 6,KISQMQRVGSTHSNSIA,EEATRAK,QQYHRLPLA,En_Gen
-0.08,6 of 6,KVSQSVLYESRLKNSVA,DASTRES,QQYHRLPLS,GP_Gen
no signal,0 of 6,IVSQLMLWGMKAKNSIA,EAQTRVN,QQYDRLPLF,En_Gen
-0.16,6 of 6,QLYAVQDMTSKNSNNVA,EQSTRNN,QQYHRLPLS,En_HC
0.24,6 of 6,KFSGSQLYESRNKNSVA,NASTRES,QQYHRLPLS,GP_Gen
0.21,6 of 6,SISGFMKSLSAHINSVA,DMTNRED,QQYERLPLS,En_Gen
0.54,6 of 6,KLTMISGLEKVSTNNVA,EMETREE,QQYNRLPLS,En_Gen
0.83,6 of 6,NFGQKMALYTGDRYSIA,DATVEAD,QQYSRLPIT,En_Gibbs

The 3 strongest on average among those seen in every replicate, once more:

CDR-L1,CDR-L2,CDR-L3,group,"mean, log10 nM",seen in
KAEGSWLYESRNKNSVA,NASERES,QQYHRLPLS,GP_Gibbs,-0.55,6 of 6
KLSQSGLYESRNKNSVA,NASTRMS,QQYHRLPLS,GP_Gen,-0.45,6 of 6
HSTGSLRMDSRNKNHVA,DTTVRES,QQYMRLPLV,En_Gibbs,-0.27,6 of 6

Background: pairings of all light chain designs with three empty control strains gave a value in 4% of cases (median 2.64, 5th percentile 1.59). Values in that range, when seen in few replicates, are hard to tell from nonspecific mating. The range of this assay differs from that of the first round, and the authors advise against merging the two. Of ten entries with the parent sequence, four were seen in most replicates (averages 0.34 to 2.37), three in one and three in none, so single entries are noisy.